Reference: patent EP1137644B9, “BENZOFURAN DERIVATIVES, THEIR PREPARATION AND USE” (H. Lundbeck A/S, priority 1998, dated 2000)

Test system: serotonin reuptake
Assay: Inhibition of 3H-5-HT uptake into rat brain synaptosomes
Type: biochemical
Conditions: ^3H-5-HT accumulation into whole rat brain synaptosomes
Description: The compounds of the invention have also been tested for their effect on re-uptake of serotonin in the following test:
Inhibition of ^3H-5-HT Uptake Into Rat Brain Synaptosomes
Using this method, the ability of drugs to inhibit the accumulation of ^3H-5-HT into whole rat brain synaptosomes is determined in vitro. The assay was performed as described by Hyttel, J., Psychopharmacology 1978, 60, 13.

## Fc1ccc([C@@H]2CCNC[C@H]2COc2ccc3c(c2)OCO3)cc1 [Paroxetine, reference compound]
  IC50: 0.29 nM
